Source: patent publication US20070155720A1 (published 2007)

By UniProt entry, the sequences of proteins in these tests, tags left out. Where a name states a change or a piece, a line headed by the entry shows the natural chain unless it says otherwise.
UniProt P61169, whole entry: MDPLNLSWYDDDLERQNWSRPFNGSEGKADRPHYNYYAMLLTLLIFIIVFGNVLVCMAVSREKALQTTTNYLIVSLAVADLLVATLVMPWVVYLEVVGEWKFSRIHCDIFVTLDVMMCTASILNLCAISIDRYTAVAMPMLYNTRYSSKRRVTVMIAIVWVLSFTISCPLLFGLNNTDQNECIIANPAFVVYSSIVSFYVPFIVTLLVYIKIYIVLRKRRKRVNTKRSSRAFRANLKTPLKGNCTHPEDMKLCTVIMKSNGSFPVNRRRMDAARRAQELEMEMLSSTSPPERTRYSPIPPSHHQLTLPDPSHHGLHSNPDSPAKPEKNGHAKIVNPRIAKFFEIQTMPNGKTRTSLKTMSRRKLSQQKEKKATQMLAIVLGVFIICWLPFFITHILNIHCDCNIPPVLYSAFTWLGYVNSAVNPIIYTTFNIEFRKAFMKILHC

Target: D2L receptor (Rattus norvegicus, UniProt P61169)
Assay: biochemical

With `Oc1ccc2c(c1O)Cc1cccc3c1C2CNC3` (stereo not shown) [Compound 29, 8,9-Dihydroxy-2,3,7,11b-tetrahydro-1H-napth[1,2,3-de]isoquinoline] the Ki was 0.059 µM.
